{"sequences": {"note": "Sequences of proteins named here, by UniProt entry; tags and fusion partners are left off. Residues count along the entry.", "UniProt P01375, 77-233": "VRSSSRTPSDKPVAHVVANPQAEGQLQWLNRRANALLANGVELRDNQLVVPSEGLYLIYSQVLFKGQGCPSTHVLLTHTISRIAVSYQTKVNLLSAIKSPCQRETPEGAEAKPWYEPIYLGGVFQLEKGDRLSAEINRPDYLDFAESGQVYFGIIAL"}, "source": "paper PMC3894572", "about": "(2013)", "key": {"[1]": {"biological_target": "T1, TNF (Homo sapiens, UniProt P01375)"}, "[2]": {"biological_target": "T1, TNF", "assay": "competition"}}, "note": "Like-named read-outs stand apart in the source and are kept apart here.", "data": [{"binder": "infliximab (antibody, V domains shown) VH: EVKLEESGGGLVQPGGSMKLSCVASGFIFSNHWMNWVRQSPEKGLEWVAEIRSKSINSATHYAESVKGRFTISRDDSKSAVYLQMTDLRTEDTGVYYCSRNYYGSTYDYWGQGTTLTVSS VL: DILLTQSPAILSVSPGERVSFSCRASQFVGSSIHWYQQRTNGSPRLLIKYASESMSGIPSRFSGSGSGTDFTLSINTVESEDIADYYCQQSHSWPFTFGSGTNLEVKR", "values": [{"measurement": "Kd", "setting": "[1]", "result": 0.4, "unit": "nM"}, {"measurement": "Kd", "setting": "[2]", "result": 0.28, "unit": "nM"}]}]}
